Earlier results, collected in PMC8131289, “Direct Comparison of the Prediction of the Unbound Brain-to-Plasma Partitioning Utilizing Machine Learning Approach and Mechanistic Neuropharmacokinetic Model” (The AAPS Journal, 2021).

Chains of the proteins cited; added tags and fusions are not shown. Lines headed by an entry give the natural chain unless they say otherwise; changes in a name come on top.
UniProt P08183, whole entry: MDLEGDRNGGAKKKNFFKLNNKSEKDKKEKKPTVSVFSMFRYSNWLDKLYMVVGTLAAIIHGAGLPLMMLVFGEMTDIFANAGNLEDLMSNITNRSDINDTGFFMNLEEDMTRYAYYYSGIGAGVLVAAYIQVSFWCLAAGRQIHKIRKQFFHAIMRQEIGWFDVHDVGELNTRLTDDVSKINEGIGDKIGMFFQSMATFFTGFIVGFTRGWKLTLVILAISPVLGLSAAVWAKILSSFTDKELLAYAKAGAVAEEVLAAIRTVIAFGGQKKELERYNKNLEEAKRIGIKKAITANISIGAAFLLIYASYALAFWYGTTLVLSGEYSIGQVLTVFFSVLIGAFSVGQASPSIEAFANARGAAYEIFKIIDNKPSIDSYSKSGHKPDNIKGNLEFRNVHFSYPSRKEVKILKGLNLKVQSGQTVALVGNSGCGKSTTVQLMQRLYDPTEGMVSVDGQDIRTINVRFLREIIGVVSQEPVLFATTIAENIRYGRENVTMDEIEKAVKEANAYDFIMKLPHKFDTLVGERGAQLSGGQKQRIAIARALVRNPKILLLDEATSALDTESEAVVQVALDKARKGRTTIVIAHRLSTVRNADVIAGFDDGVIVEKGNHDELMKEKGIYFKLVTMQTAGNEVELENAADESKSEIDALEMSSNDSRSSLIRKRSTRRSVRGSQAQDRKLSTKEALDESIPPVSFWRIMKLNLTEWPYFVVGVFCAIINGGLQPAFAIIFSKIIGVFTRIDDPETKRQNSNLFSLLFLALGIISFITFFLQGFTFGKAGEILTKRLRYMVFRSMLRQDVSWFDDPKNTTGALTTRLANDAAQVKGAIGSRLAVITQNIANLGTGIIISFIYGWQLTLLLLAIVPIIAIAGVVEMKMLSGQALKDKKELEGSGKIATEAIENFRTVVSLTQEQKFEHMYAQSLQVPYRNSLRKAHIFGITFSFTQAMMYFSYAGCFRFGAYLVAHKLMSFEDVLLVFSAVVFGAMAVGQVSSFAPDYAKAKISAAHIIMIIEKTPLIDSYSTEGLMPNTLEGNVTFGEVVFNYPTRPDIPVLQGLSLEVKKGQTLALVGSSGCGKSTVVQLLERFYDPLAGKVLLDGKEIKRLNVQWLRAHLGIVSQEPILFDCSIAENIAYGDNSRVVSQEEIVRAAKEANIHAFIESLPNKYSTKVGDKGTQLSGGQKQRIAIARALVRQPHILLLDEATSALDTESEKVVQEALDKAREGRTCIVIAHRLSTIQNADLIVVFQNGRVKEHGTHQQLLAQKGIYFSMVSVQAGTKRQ
UniProt Q9UNQ0: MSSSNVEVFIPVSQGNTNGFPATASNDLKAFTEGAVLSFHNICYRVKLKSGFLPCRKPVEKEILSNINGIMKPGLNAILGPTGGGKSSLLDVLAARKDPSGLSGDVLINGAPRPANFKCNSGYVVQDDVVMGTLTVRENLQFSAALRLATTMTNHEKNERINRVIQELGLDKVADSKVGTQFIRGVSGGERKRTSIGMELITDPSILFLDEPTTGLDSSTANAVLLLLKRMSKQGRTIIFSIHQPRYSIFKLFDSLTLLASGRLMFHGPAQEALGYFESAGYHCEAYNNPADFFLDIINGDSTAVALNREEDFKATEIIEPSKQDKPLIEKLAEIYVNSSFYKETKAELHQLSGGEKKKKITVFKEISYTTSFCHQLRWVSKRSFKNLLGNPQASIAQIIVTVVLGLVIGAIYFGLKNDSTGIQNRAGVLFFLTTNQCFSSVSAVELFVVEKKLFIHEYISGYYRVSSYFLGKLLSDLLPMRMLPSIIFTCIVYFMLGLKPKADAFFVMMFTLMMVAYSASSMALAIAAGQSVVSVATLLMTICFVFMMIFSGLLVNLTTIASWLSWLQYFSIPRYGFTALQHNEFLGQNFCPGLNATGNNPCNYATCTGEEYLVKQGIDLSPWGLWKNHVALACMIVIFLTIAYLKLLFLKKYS

Assays:
MDR1 = MDR1 (Homo sapiens, UniProt P08183); details: MDCK-MDR1 cells, external dataset; ref (17)
BCRP = BCRP (Homo sapiens, UniProt Q9UNQ0); details: MDCK-BCRP cells, external dataset; ref (17)

| Structure (SMILES) | Efflux ratio MDR1 (MDR1) | Efflux ratio BCRP (BCRP) |
| --- | --- | --- |
| O=c1c(-c2ccc(O)cc2)coc2cc(O)cc(O)c12 [Genistein] | 0.19 |  |
| O=C1NC(=O)C(c2ccccc2)(c2ccccc2)N1 [Phenytoin] |  | 0.93 |
| CC(C)NCC(O)COc1cccc2ccccc12 (stereo not shown) [Propranolol] | 0.93 | 0.95 |
